In ChEMBL document CHEMBL3603773, “Synthesis of novel triazoles and a tetrazole of escitalopram as cholinesterase inhibitors” (Bioorg Med Chem, 2015) one finds inhibition data, which are given here for one compound.

Amino acid sequences for entries named in this document (tags omitted).
UniProt P06276, whole entry: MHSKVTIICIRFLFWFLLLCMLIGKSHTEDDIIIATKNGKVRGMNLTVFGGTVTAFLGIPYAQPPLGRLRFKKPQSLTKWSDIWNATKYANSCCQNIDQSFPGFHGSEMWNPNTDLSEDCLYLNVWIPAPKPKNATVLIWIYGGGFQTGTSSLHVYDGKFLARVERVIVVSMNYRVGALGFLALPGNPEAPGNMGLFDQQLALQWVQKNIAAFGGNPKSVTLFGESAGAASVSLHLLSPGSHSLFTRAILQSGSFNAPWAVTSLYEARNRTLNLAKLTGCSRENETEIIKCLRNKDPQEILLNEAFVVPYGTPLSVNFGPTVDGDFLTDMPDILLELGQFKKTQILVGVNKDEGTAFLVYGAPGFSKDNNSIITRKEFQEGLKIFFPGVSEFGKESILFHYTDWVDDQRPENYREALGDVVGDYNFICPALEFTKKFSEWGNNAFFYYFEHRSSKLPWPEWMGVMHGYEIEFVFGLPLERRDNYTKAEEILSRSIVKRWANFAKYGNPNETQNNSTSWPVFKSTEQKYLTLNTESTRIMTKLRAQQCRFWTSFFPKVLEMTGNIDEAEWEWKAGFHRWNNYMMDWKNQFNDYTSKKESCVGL

In the assay the target is Cholinesterase (Homo sapiens, UniProt P06276). In words: Inhibition of BChE (unknown origin) using butyrylthiocholine chloride as substrate at 0.5 mM preincubated for 30 mins before substrate addition measured after 30 mins by Ellman method relative to control.

For `CNC(=O)Oc1ccc2c(c1)[C@]1(C)CCN(C)[C@@H]1N2C`, the inhibition (in general, the drop in the measured response relative to a control, in per cent) was 82.8%.
